The text below walks through data of ChEMBL document CHEMBL1123068, “2-Fluoroformycin and 2-aminoformycin. Synthesis and biological activity” (J Med Chem, 1985).

Substrate in series [1]: Nc1nc(F)nc2c([C@@H]3O[C@H](CO)[C@@H](O)[C@H]3O)n[nH]c12
Substrate in series [2]: Nc1nc(N)c2[nH]nc([C@@H]3O[C@H](CO)[C@@H](O)[C@H]3O)c2n1
Substrate in series [3]: Nc1ncnc2c([C@@H]3O[C@H](CO)[C@@H](O)[C@H]3O)[nH]nc12

B1: Adenosine deaminase (Bos taurus), P56658 (protein)
chain: MAQTPAFNKPKVELHVHLDGAIKPETILYYGRKRGIALPADTPEELQNIIGMDKPLSLPEFLAKFDYYMPAIAGCREAVKRIAYEFVEMKAKDGVVYVEVRYSPHLLANSKVEPIPWNQAEGDLTPDEVVSLVNQGLQEGERDFGVKVRSILCCMRHQPSWSSEVVELCKKYREQTVVAIDLAGDETIEGSSLFPGHVKAYAEAVKSGVHRTVHAGEVGSANVVKEAVDTLKTERLGHGYHTLEDATLYNRLRQENMHFEVCPWSSYLTGAWKPDTEHPVVRFKNDQVNYSLNTDDPLIFKSTLDTDYQMTKNEMGFTEEEFKRLNINAAKSSFLPEDEKKELLDLLYKAYGMPSPASAEQCL
For B1, the Km in series [1] is 1000 µM; in series [2] it was 290 µM; in series [3], 500 µM.

The term Km denotes the substrate concentration at which the rate is half of its maximum.
